{"source": "patent US20260226222A1", "about": "“PROCESS FOR MANUFACTURING POLYURETHANE FOAM” (Galata Chemicals, LLC, priority 2023, published 2026)", "key": {"[1]": {"details": "foam"}, "[2]": {"details": "cited from earlier work"}}, "note": "Like-named read-outs stand apart in the source and are kept apart here."}
{"substance": "Stannous di(2-ethylhexanoate)", "values": [{"measurement": "elongation", "setting": "[1]", "result": 97, "unit": "%"}, {"measurement": "% Elongation", "setting": "[1]; catalyst 0.23 pphp", "result": 97, "unit": "%"}, {"measurement": "Density", "setting": "[1]; catalyst 0.23 pphp", "result": 1.31, "unit": "lbs/ft3"}, {"measurement": "Permeability", "setting": "[1]; catalyst 0.23 pphp", "result": 0.7, "unit": "scfm"}, {"measurement": "Resiliency", "setting": "[1]; catalyst 0.23 pphp", "result": 30, "unit": "%"}, {"measurement": "Tensile", "setting": "[1]; catalyst 0.23 pphp", "result": 14, "unit": "psi"}, {"measurement": "CMR classification", "setting": "[2]; Effective Jan. 11, 2023", "result": "Reprotox. of Cat. 1B"}, {"measurement": "CMR classification", "setting": "[2]; current", "result": "reprotoxicant of category 2"}, {"measurement": "CMR classification", "setting": "[2]; reproductive toxicity / CMR status, current or as in Comments", "result": "Reprotox. of Cat. 2"}, {"measurement": "CMR classification", "setting": "[2]; will be classified in 2023, Europe", "result": "reprotoxicant of category 1B"}]}
